Reference: patent publication US20240360153A1, “SELECTIVE RAPAMYCIN ANALOGS AND USES THEREOF” (Regeneron Pharmaceuticals, Inc., priority 2023, published 2024)

Experiment: In vitro microsomal metabolic stability, human liver microsomes
Assay type: in vitro ADME
Method: Buffers: PBK Buffer: 50 mM potassium phosphate buffer (PPB), pH 7.2, with 3.3 mM Magnesium Chloride.
TA Intermediate solution: Compound or control (3 μL) diluted from stock solution (10 mM) with 297 μL 90.0% methanol/water. (Conc: 100 μM; 1.0% DMSO, 89.1% MeOH).
Control cocktail intermediate solution: Each control (3 μL) was diluted with 291 μL 90.0% methanol/water.
Diluted TA intermediate stock solution and PC control stock were made by transferring 80 μL of 100 μM TA stock solution into new tubes and then adding 720 μL of 1.0% DMSO in 50 mM potassium phosphate buffer (conc. 10 μM; 1.0% DMSO, 8.91% MeOH).
Preparation of Liver microsomes working solution (1.25×)(final Conc.: 0.5 mg/mL).
Acetonitrile:methanol (9:1, v/v)(including 200 ng/mL tolbutamide and 200 ng/ml labetalol hydrochloride as internal standards).
Working solution: Intermediate solution (80 μL) was diluted with 720 μL 1.0% DMSO in 50 mM potassium phosphate buffer (Conc.: 10 μM; 1.0% DMSO, 8.91% MeOH)
Procedure: Stock solution was added to each of the time point plates. Microsomes solution (360 μL/well), TA/PC (45 μL/well), and NADPH (45 μL/well) min. (Conc: 1.0 μM, 0.10% DMSO, 0.891% MeOH) were added to the incubation plates. To the T60 and NCF60 plate, TA (15 ul/well) and Microsomes (120 ul) were added. To the blank plate, microsome (50 ul/well) with stop solution (150 ul/well) were added. At the end of each time point, 50 ul/well was aliquoted from the incubation plate. The sampling plates were shaken for approximately 10 min. on a shaker and the samples were centrifuged at 4000 rpm for 15 min. Supernatant (120 μL) was transferred for LC/MS/MS.Compounds from Table 3 were incubated at 37° C. with liver microsomes (pooled from multiple donors) at 1 μM in the presence of a NADPH regenerating system at 0.5 mg/ml microsomal protein. Positive controls included testosterone (3A4 substrate), propafenone (2D6) and diclofenac (2C9), which were incubated with microsomes in the presence of an NADPH regenerating system. At time points (0, 5, 10, 20, 30 and 60 minutes), samples were removed and immediately mixed with cold acetonitrile containing the internal standard (IS). Test compounds incubated with microsomes without the NADPH regenerating system for 60 min are also included. A single point for each test condition (n=1) was obtained, and samples were analyzed by LC/MS/MS. Disappearance of the test compound was assessed based on peak area ratios of analyte/IS (no standard curve).

Rapamycin [reference compound]
CL: 130 µL/min/mg | CLint: 117 mL/min/kg | T1/2 (1 μM, 0.5 mg/ml protein, NADPH): 10.7 min | Remaining (T = 60 min) (with NADPH, 60 min): 1.40% | Remaining (T = NCF60 min) (without NADPH regenerating system, 60 min): 116%
